Assays:
[1] = test system: HS5 (bone marrow origin); assay: RealTime-Glo MT cell viability assay, noncancerous normal cells; format: cell-based, Human
[2] = test system: THLE3 (liver origin); assay: as above; format: cell-based, Human
[3] = molecular target: XIAP (Homo sapiens, UniProt P98170); assay: NMR 1H-15N-HSQC of XIAP with A4; conditions: chemical shift perturbations, absence or presence of A4
Description: Uniformly ^13C,^15N-labeled XIAP of 0.8–1.0 mmol/L concentration was used for nuclear magnetic resonance (NMR) studies. NMR experiments were carried out at 298 K (25°C) on a Bruker Avance spectrometer with a proton frequency of 600 or 700 MHz and equipped with a cryoprobe. Sequence-specific assignment was obtained on the basis of the following experiments including ^1H-^15N-HSQC, HNCA, HNCACB, HN(CO)CA, HN(CO)CACB, and HNCO. Spectra were acquired using standard pulses from Topspin (version 2.1). To determine XIAP interaction with small molecule A4, ^1H-^15N-HSQC experiment was performed using 50 mmol/L of A4 compound dissolved in DMSO and 0.5 mmol/L of ^15N-labeled XIAP. The ^1H-^15N-HSQC spectra of XIAP in the absence and presence of different amounts of A4 compounds were acquired, processed, and analyzed. The collected data were processed with NMRPipe ([23]) and analyzed with NMRView ([24]).
To better understand the mechanisms by which these compounds target XIAP in high-risk neuroblastoma, binding interactions between the antagonists and XIAP were first determined in BE(2)-C and KELLY cells using a NanoBRET quantitative target engagement assay. […]

Amino acid sequences for entries named in this document (tags omitted).
UniProt P98170, whole entry: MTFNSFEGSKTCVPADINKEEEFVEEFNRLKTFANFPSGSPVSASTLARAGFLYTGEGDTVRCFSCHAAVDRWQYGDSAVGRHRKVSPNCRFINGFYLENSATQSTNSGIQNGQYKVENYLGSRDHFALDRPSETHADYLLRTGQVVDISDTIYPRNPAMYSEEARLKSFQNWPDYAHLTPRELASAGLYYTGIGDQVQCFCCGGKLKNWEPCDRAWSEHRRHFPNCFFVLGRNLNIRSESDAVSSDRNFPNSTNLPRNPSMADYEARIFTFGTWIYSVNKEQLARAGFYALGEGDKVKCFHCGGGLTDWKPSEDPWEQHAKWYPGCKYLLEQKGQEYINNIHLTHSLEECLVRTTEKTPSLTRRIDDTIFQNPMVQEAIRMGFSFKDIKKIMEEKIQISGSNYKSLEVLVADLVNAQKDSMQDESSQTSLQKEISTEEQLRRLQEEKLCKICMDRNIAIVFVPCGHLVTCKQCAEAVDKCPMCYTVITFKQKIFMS

**Q.** For `COC(=O)c1[nH]c2ccc(Cl)cc2c1NC(=O)CN1CCN(Cc2ccccc2)CC1`, which IC50 ([1]; HS5, 24 hours) is on record?
**A.** 17.6 µM

**Q.** And the IC50 ([1]; HS5, 48 hours)?
**A.** 19.3 µM

**Q.** And the IC50 ([1]; HS5, 72 hours)?
**A.** 16.6 µM

**Q.** And the IC50 ([2]; THLE3, 24 hours)?
**A.** 26.8 µM

**Q.** And the IC50 ([2]; THLE3, 48 hours)?
**A.** 16 µM

**Q.** And the IC50 ([2]; THLE3, 72 hours)?
**A.** 12.6 µM

**Q.** What about the “interaction with XIAP by 1H-15N-HSQC NMR” value [3] of the same molecule?
**A.** direct interaction between A4 and XIAP

— article PMC10681007, “Targeted Degradation of XIAP is Sufficient and Specific to Induce Apoptosis in MYCN-overexpressing High-risk Neuroblastoma” (Cancer Research Communications, 2023)
